Test results taken from patent US12139534B2, “Methods and compositions for decreasing soluble immune receptor CD28” (BIOND BIOLOGICS LTD., priority 2018, dated 2024).

Test system: human PBMCs
Assay: CMV stimulation of PBMCs with ectopic recombinant human CD28, CTLA-4, CD80; cytokine ELISA/multiplex
Type: cell-based
Conditions: CMV 0.5 μg/mL

Substance: soluble CTLA-4: recombinant human CTLA-4 (R&D systems), mimicking Abatacept
- cytokine secretion profiles, comparison with sCD28: over-all similar impact on the immune system
